In PubChem BioAssay AID1259310 (The Scripps Research Institute Molecular Screening Center, 2017) one finds normalized activity (activation) data, which are given here for 59 compounds.

Amino acid sequences for entries named in this document (tags omitted).
UniProt Q969H0, whole entry, looked up: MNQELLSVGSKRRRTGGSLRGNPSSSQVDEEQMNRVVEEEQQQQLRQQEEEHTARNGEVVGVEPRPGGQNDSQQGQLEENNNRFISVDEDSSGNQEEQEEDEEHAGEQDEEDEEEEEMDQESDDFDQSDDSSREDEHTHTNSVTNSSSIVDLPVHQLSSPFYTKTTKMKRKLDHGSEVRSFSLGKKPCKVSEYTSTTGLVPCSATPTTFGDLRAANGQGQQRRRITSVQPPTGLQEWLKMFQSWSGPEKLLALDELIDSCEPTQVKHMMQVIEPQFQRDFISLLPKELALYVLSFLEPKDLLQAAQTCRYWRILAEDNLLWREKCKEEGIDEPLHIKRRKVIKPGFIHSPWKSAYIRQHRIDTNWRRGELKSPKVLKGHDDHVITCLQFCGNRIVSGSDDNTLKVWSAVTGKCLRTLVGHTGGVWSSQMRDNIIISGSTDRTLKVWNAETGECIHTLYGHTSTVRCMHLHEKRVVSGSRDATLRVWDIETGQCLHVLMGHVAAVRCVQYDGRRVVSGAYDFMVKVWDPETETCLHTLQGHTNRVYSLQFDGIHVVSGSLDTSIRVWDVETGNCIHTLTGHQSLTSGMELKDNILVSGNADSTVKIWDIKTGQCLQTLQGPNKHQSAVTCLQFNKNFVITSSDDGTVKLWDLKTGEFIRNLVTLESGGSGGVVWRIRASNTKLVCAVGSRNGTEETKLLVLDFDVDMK

The list shows a part of the results, in another mix than the full data. Activity calls are given as the source filed them. No stated cut-off is given here; in the data, active means normalized activity above about 1.9%; inactive means the rest.

The target in this assay is F-box/WD repeat-containing protein 7 (Homo sapiens) (UniProt Q969H0). The assay can be described thus: FBW7 E3 ligase activators, primary screen, biochemical, AlphaScreen, human (AID 1259310).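 Further: purified mutant Fbw7 with reduced substrate affinity.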 Conditions: AlphaScreen FBW7–phospho-cyclin E peptide binding, activator screen; at 26.1 µM; active compounds read high. A general note: In Alpha technology, singlet oxygen from a donor bead excites a nearby acceptor bead.
For the compound `Cc1c([N+](=O)[O-])cc(C(=O)c2cc([N+](=O)[O-])c(C)c([N+](=O)[O-])c2)cc1[N+](=O)[O-]`, the normalized activity (activation) is inactive: 0.36%. On to `CN(C)c1ccc2c(c1)N1Cc3ccccc3C1=NP2(=O)c1ccccc1` (centres undefined), for which the normalized activity (activation) was inactive: -0.09%.

For `CC(C)OP(=O)(OC(C)C)C(C)N` (centres undefined), the normalized activity (activation) was inactive: 0.68%.

For `CCOP1(=O)O/C(=C\Cl)CN1c1ccccc1` (centres undefined), the normalized activity (activation) was inactive: 0.07%. With `O=[N+]([O-])c1ccc(NCCCCNc2ccc([N+](=O)[O-])cc2[N+](=O)[O-])c([N+](=O)[O-])c1` the figure was inactive: -0.03%. With `CCOP(=O)(OCC)C(NC(=O)OC)C(Cl)(Cl)Cl` (centres undefined) the figure was inactive: -0.06%. Turning to `Cc1ccc2nc(NCCCl)[nH]c2c1`, the normalized activity (activation) is inactive: -0.26%. To `CCOC(=O)c1ccc(NC2=NCC(CBr)S2)cc1` (centres undefined) belongs inactive: 1.46%. Take `O=C(NNC1=NCC(CBr)S1)c1ccccc1` (centres undefined): the normalized activity (activation) was inactive: 0.02%. `COC(=O)C(CC(C)C)NC(=O)NP(=O)(Oc1ccccc1)Oc1ccccc1` (centres undefined): the normalized activity (activation) is inactive: 0.13%. To `O=[N+]([O-])c1cc([N+](=O)[O-])c(N(CC(O)CO)c2ccccc2)c([N+](=O)[O-])c1` (centres undefined) belongs inactive: -0.27%; to `CCOP(=O)(OCC)C(OC(=O)C(Cl)(Cl)Cl)=C(Cl)Cl`, inactive: -0.18%. Take `O=C(c1cccnc1)N(Cc1ccco1)C1CCN(CCc2ccccn2)CC1`: the normalized activity (activation) is inactive: 0.07%.

Take `Cc1cc(NC2=NC3C(C(=O)N(C)C(=O)N3C)N2C)n(-c2ccccc2)n1` (centres undefined): the normalized activity (activation) was inactive: 0.54%.

As for `CNc1c([N+](=O)[O-])cc([N+](=O)[O-])c2nonc12`, the normalized activity (activation) was inactive: 0.54%.

For the compound `CN(C)c1ccc(/[N+]([O-])=C/c2c([N+](=O)[O-])cc([N+](=O)[O-])cc2[N+](=O)[O-])cc1`, the normalized activity (activation) was inactive: -0.41%. With `O=P1(Nc2nncs2)C=C(c2ccccc2)SC(c2ccccc2)=C1`, the normalized activity (activation) was inactive: -0.02%.

Turning to `O=P1(Nc2nc3ccc(Cl)cc3s2)COc2ccccc2O1` (centres undefined), the normalized activity (activation) was inactive: 0.14%. Regarding `Cc1ccc([N+](=O)[O-])c2no[n+]([O-])c12`, the normalized activity (activation) is inactive: -0.77%.

Regarding `CCOP(=O)(Nc1cccc2ccccc12)OCC`, the normalized activity (activation) is inactive: 0.06%. To `CCC(C(=O)OC1CN2CCC1CC2)c1ccccc1` (centres undefined) belongs inactive: -0.01%. Turning to `O=C(c1cccnc1)N(Cc1cccnc1)C1CCN(CCc2cccs2)CC1`, the normalized activity (activation) is inactive: 0.53%. `O=C(Nc1cccc([N+](=O)[O-])c1)c1ccc([N+](=O)[O-])cc1[N+](=O)[O-]`: the normalized activity (activation) is inactive: -0.03%. On to `Cc1ccc(NCCc2c([N+](=O)[O-])cc([N+](=O)[O-])cc2[N+](=O)[O-])cc1`, for which the normalized activity (activation) was inactive: 0.5%. With `CCOC(=O)C(C(=O)OCC)C(O)c1c([N+](=O)[O-])cc([N+](=O)[O-])cc1[N+](=O)[O-]` (centres undefined) the figure was inactive: -0.13%; with `O=C(N/N=C\c1ccc([N+](=O)[O-])cc1)c1cc([N+](=O)[O-])cc([N+](=O)[O-])c1O`, inactive: 0.57%; with `COP(=O)(Nc1ccc(C)cc1)OC`, inactive: -0.08%. As for `Cc1cc(Br)c(Nc2c([N+](=O)[O-])cc([N+](=O)[O-])c3nonc23)cc1[N+](=O)[O-]`, the normalized activity (activation) is inactive: -0.01%.

With `Cc1cccc(OCC(=O)OC2CN3CCC2CC3)c1` (centres undefined), the normalized activity (activation) was inactive: 0.05%.

As for `CC(C)OP(=O)(OC(C)C)C(=O)c1ccco1`, the normalized activity (activation) was inactive: 0%.

Turning to `BrCC1CN=C(Nc2ccccc2)S1` (centres undefined), the normalized activity (activation) was inactive: -0.37%. `COc1cc(-n2cnnn2)ccc1-n1cnnn1`: the normalized activity (activation) is inactive: -0.08%. On to `CN(C(=O)Cc1ccc(Cl)c(Cl)c1)[C@@H]1CC[C@]2(CCCO2)C[C@H]1N1CCCC1`, for which the normalized activity (activation) was inactive: 0.05%. To `CCOP1(=O)N=C(c2ccc(Br)cc2)NC(=O)N1` (centres undefined) belongs inactive: 0.04%; to `Cc1cc(NC(=O)NP(=O)(O)O)n(-c2ccccc2)n1`, inactive: 0.18%. Take `CCOC(=O)NC(Sc1cc(C)ncn1)C(Cl)(Cl)Cl` (centres undefined): the normalized activity (activation) was inactive: 0.07%. Take `O=[N+]([O-])c1ccc(Nc2ccc([N+](=O)[O-])cc2[N+](=O)[O-])c(O)c1`: the normalized activity (activation) was inactive: -0.3%. As for `CN(C(=O)Cc1ccccc1)[C@@H]1CC[C@]2(CCCO2)C[C@H]1N1CCCC1`, the normalized activity (activation) was inactive: 0.07%. As for `Cc1ccnc(NP2(=O)C=C(c3ccccc3)OC(c3ccccc3)=C2)c1`, the normalized activity (activation) was inactive: 0.11%. With `CC1(C)Nc2ccccc2OP1(=O)c1ccccc1` (centres undefined) the figure was inactive: -0.1%; with `O=[N+]([O-])c1cccc(P(=O)(Nc2ccccn2)c2cccc([N+](=O)[O-])c2)c1`, inactive: 0.02%; with `O=C(Oc1ccc([N+](=O)[O-])cc1[N+](=O)[O-])c1cc([N+](=O)[O-])cc([N+](=O)[O-])c1`, inactive: 0.11%.

In the case of `CC(=O)c1cccc(NC(=O)N(Cc2ccco2)C2CCN(CCc3ccccn3)CC2)c1`, the normalized activity (activation) is inactive: 0.15%. On to `NC(=O)c1nsnc1NCCCl`, for which the normalized activity (activation) is inactive: 0.17%.

Take `O=[N+]([O-])c1ccc(N/N=C/c2ccc(Cl)c([N+](=O)[O-])c2)c([N+](=O)[O-])c1`: the normalized activity (activation) was inactive: 0%. For `Cc1ccc(NC2=NCC(CBr)S2)cc1` (centres undefined), the normalized activity (activation) was inactive: -0.16%. Regarding `O=C(COC(=O)C(O)(c1ccccc1)c1ccccc1)NC(=O)NCc1ccccc1`, the normalized activity (activation) was inactive: -0.03%. With `NC(=O)Nc1ccc([As](=O)(O)O)cc1` the figure was inactive: 0.06%; with `Cc1ncc(-c2ccccc2)c2ccccc12`, inactive: -0.01%. Take `Cn1cnc([N+](=O)[O-])c1SCCCl`: the normalized activity (activation) is inactive: -0.07%.

Turning to `CCOc1ccc2nc(NCCCl)[nH]c2c1`, the normalized activity (activation) is inactive: -0.39%. `CC(=O)NC(SC1=NCCS1)C(Cl)(Cl)Cl` (centres undefined): the normalized activity (activation) is inactive: 0.19%. For the compound `O=P(Nc1ccccn1)(c1ccccc1)c1ccccc1`, the normalized activity (activation) is inactive: 0.05%. Take `O=P(Nc1nccs1)(c1ccccc1)c1nc2ccccc2s1` (centres undefined): the normalized activity (activation) is inactive: 0.23%. Take `O=P(Nc1nccs1)(Oc1ccccc1)Oc1ccccc1`: the normalized activity (activation) was inactive: 0%. Turning to `NC(=O)COC(=O)C1(O)c2ccccc2-c2ccccc21`, the normalized activity (activation) is inactive: -0.14%. As to `CCOP1(=O)Oc2ccccc2OC1c1ccccc1` (centres undefined), the normalized activity (activation) is inactive: 0.02%. On to `Cc1c(N=Cc2ccc([N+](=O)[O-])cc2)cc([N+](=O)[O-])cc1[N+](=O)[O-]`, for which the normalized activity (activation) was inactive: 0.14%. To `O=C(Nc1cccc(F)c1)N(Cc1cccnc1)C1CCN(CCc2ccccn2)CC1` belongs inactive: 0.51%.
